Target: human VR1 (Homo sapiens, UniProt Q8NER1)
Assay: Inhibition of Ca2+ entry in cells caused by proton, in rat glioma (C6BU1) cells stably expressing human VR1 (Fura 2 fluorescence)
Details: inhibition of proton-induced Ca2+ entry
Procedure: The assay for evaluation of VR1 inhibition by the inventive compounds will be described below. The assay was intended to evaluate in vitro inhibition of Ca^2+ entry in cells caused by proton, one of the VR1 agonists.
Rat glioma (C6BU1) cells stably expressing human VR1 were suspended in 20 mM MES buffer (at pH 6.8, contg. 20 mM 2-morpholinoethanesulfonate (referred to as MES hereinafter), 115 mM NaCl, 5 mM KCl, 1 mM MgCl2 and 14 mM D-glucose) to make a cell density of 1×10^6 cells/mL. A fluorescent dye, Fura 2-AMsolution (DojindoCorporate, Cat. No. 343-05401) was added to the suspension to make a 5 μM concentration thereof. Further, Pluronic F-127 (Wako Pure Chemical Industries, Ltd., Cat. No. P6866) was added to make a 0.1% content thereof. Then, the suspension was incubated at 37° C. for 30 min. The cells were harvested and washed three times with 20 mM MES buffer. The cells were suspended again to make a cell density of 5×10^5 cells/mL. A 500-μL portion of the suspension was taken with a cuvette (MC MEDICAL, INC., Cat. No. SSR3121), to which 10 μL of 20 mM MES buffer containing 250 mM CaCl2 was added to incorporate Ca^2+ into the cells. […] The activity of the test compound was determined as a difference between the minimum of fluorescence intensity before agonist stimulation and its maximum after the stimulation. […]

By UniProt entry, the sequences of proteins in these tests, tags left out.
UniProt Q8NER1, whole entry: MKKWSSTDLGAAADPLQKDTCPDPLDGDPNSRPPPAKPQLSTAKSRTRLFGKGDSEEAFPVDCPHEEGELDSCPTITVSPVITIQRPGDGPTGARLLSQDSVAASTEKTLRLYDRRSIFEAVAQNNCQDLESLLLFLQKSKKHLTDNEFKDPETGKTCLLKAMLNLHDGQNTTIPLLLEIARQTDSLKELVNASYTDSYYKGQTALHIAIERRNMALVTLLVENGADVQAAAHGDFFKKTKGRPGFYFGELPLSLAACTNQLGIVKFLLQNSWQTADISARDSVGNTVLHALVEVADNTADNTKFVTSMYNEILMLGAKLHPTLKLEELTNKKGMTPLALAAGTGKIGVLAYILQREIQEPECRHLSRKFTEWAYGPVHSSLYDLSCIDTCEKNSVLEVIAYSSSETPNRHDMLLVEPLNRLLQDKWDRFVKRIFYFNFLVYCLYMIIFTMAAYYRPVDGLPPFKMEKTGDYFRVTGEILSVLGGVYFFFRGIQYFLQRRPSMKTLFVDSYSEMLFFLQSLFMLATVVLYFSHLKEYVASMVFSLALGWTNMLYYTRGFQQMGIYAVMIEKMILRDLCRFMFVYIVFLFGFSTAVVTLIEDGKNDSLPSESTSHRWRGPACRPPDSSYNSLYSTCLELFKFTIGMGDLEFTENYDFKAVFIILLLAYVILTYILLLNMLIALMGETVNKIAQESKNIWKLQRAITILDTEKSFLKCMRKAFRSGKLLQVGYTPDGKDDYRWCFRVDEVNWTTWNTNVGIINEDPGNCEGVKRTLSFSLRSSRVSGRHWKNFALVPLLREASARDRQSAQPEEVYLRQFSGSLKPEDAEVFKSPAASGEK

## CC(C)(O)c1ccc(NC(=O)c2cccc3c2OCCN3c2ncccc2Cl)cc1
  IC50: 100 to 1000 nM

From US8008292B2, “Condensed benzamide compounds and inhibitors of vanilloid receptor subtype 1 (VR1) activity” (Japan Tobacco Inc., priority 2004, dated 2011)
